Experimental data as given in patent publication US20160022760A1, “METHODS OF TREATING CELIAC DISEASE WITH LARAZOTIDE” (priority 2014, published 2016).
Where no end group is shown, it is not given here.

Test system: subjects with celiac disease
Assay: Phase IIb study: clinical laboratory values (hematology, chemistry)
[1] = 0.5 mg TID, N = 85, treatment period, Safety Population
[2] = 0.5 mg TID, end of treatment, Safety Population
[3] = 1 mg TID, N = 84, treatment period, Safety Population
[4] = 1 mg TID, end of treatment, Safety Population

**Q.** What does the source list for “GGVLVQPG (SEQ ID NO:1) [Larazotide acetate]”?
**A.** PCS abnormal ALT (≧3 × ULN), subjects n [1]: 0; PCS abnormal AST (≧3 × ULN), subjects % [1]: (1.2) %; PCS abnormal AST (≧3 × ULN), subjects n [1]: 1; PCS abnormal Alkaline phosphatase (≧3 × ULN), subjects % [1]: (1.2) %; PCS abnormal Alkaline phosphatase (≧3 × ULN), subjects n [1]: 1; PCS abnormal Ferritin serum (≦0.75 × LLN), subjects % [1]: (15.3) %; PCS abnormal Ferritin serum (≦0.75 × LLN), subjects n [1]: 13; PCS abnormal Glucose random (≦0.75 × LLN), subjects n [1]: 0; PCS abnormal Hematocrit (≦0.75 × LLN), subjects n [1]: 0; PCS abnormal Hemoglobin (≦0.75 × LLN), subjects n [1]: 0; PCS abnormal Lymphocytes (≦0.75 × LLN or ≧1.5 × ULN), subjects % [1]: (1.2) %; PCS abnormal Lymphocytes (≦0.75 × LLN or ≧1.5 × ULN), subjects n [1]: 1; PCS abnormal Neutrophils (≦0.75 × LLN or ≧1.5 × ULN), subjects % [1]: (2.4) %; PCS abnormal Neutrophils (≦0.75 × LLN or ≧1.5 × ULN), subjects n [1]: 2; PCS abnormal White blood cells (≦0.75 × LLN or ≧1.5 × ULN), subjects n [1]: 0; Subjects with at least 1 PCS abnormal test, % [1]: (17.6) %; ALT, Mean Change From Baseline to End of Treatment (0.5 mg TID, Safety Population): −0.8 IU/L; AST, Mean Change From Baseline to End of Treatment (0.5 mg TID, Safety Population): −1.5 IU/L; Albumin, Mean Change From Baseline to End of Treatment (0.5 mg TID, Safety Population): 0.0 g/dL; Alkaline phosphatase, Mean Change From Baseline to End of Treatment (0.5 mg TID, Safety Population): −3.0 IU/L; BUN, Mean Change From Baseline to End of Treatment (0.5 mg TID, Safety Population): 0.2 mg/dL; Basophils, Mean Change From Baseline to End of Treatment (0.5 mg TID, Safety Population): 0.1%; Calcium, Mean Change From Baseline to End of Treatment (0.5 mg TID, Safety Population): -0.1 mg/dL; Chloride, Mean Change From Baseline to End of Treatment (0.5 mg TID, Safety Population): -0.1 mmol/L; Creatinine, Mean Change From Baseline to End of Treatment (0.5 mg TID, Safety Population): -0.0 mg/dL; Eosinophils, Mean Change From Baseline to End of Treatment (0.5 mg TID, Safety Population): −0.1%; Glucose (random), Mean Change From Baseline to End of Treatment (0.5 mg TID, Safety Population): 2.4 mg/dL; Hematocrit, Mean Change From Baseline to End of Treatment (0.5 mg TID, Safety Population): 0.1%; Hemoglobin, Mean Change From Baseline to End of Treatment (0.5 mg TID, Safety Population): 0 g/dL; Lymphocytes, Mean Change From Baseline to End of Treatment (0.5 mg TID, Safety Population): −0.2%; Monocytes, Mean Change From Baseline to End of Treatment (0.5 mg TID, Safety Population): −0.1%; Neutrophils, Mean Change From Baseline to End of Treatment (0.5 mg TID, Safety Population): 0.3%; Platelet count, Mean Change From Baseline to End of Treatment (0.5 mg TID, Safety Population): 2.2 K/μL; Potassium, Mean Change From Baseline to End of Treatment (0.5 mg TID, Safety Population): -0.1 mmol/L; Sodium, Mean Change From Baseline to End of Treatment (0.5 mg TID, Safety Population): -0.1 mmol/L; Total bilirubin, Mean Change From Baseline to End of Treatment (0.5 mg TID, Safety Population): -0.0 mg/dL; White blood cells, Mean Change From Baseline to End of Treatment (0.5 mg TID, Safety Population): 0.1 K/μL; ALT, Mean Value [2]: 22.7 IU/L; AST, Mean Value [2]: 23.7 IU/L; Albumin, Mean Value [2]: 4.1 g/dL; Alkaline phosphatase, Mean Value [2]: 63.1 IU/L; BUN, Mean Value [2]: 12.1 mg/dL; Basophils, Mean Value [2]: 0.4%; Calcium, Mean Value [2]: 9.4 mg/dL; Chloride, Mean Value [2]: 104.7 mmol/L; Creatinine, Mean Value [2]: 0.8 mg/dL; Eosinophils, Mean Value [2]: 2.7%; Glucose (random), Mean Value [2]: 93.2 mg/dL; Hematocrit, Mean Value [2]: 40%; Hemoglobin, Mean Value [2]: 13.4 g/dL; Lymphocytes, Mean Value [2]: 29.2%; Monocytes, Mean Value [2]: 6.9%; Neutrophils, Mean Value [2]: 61%; Platelet count, Mean Value [2]: 244 K/μL; Potassium, Mean Value [2]: 4.1 mmol/L; Sodium, Mean Value [2]: 138.3 mmol/L; Total bilirubin, Mean Value [2]: 0.6 mg/dL; White blood cells, Mean Value [2]: 5.9 K/μL; Proportion of subjects who developed potentially clinically significant abnormal laboratory values during the treatment period (1 mg TID): 22.6%; PCS abnormal ALT (≧3 × ULN), subjects n [3]: 0; PCS abnormal AST (≧3 × ULN), subjects n [3]: 0; PCS abnormal Alkaline phosphatase (≧3 × ULN), subjects n [3]: 0; PCS abnormal Ferritin serum (≦0.75 × LLN), subjects % [3]: (14.3) %; PCS abnormal Ferritin serum (≦0.75 × LLN), subjects n [3]: 12; PCS abnormal Glucose random (≦0.75 × LLN), subjects n [3]: 0; PCS abnormal Hematocrit (≦0.75 × LLN), subjects n [3]: 0; PCS abnormal Hemoglobin (≦0.75 × LLN), subjects n [3]: 0; PCS abnormal Lymphocytes (≦0.75 × LLN or ≧1.5 × ULN), subjects % [3]: (6.0) %; PCS abnormal Lymphocytes (≦0.75 × LLN or ≧1.5 × ULN), subjects n [3]: 5; PCS abnormal Neutrophils (≦0.75 × LLN or ≧1.5 × ULN), subjects % [3]: (2.4) %; PCS abnormal Neutrophils (≦0.75 × LLN or ≧1.5 × ULN), subjects n [3]: 2; PCS abnormal White blood cells (≦0.75 × LLN or ≧1.5 × ULN), subjects n [3]: 0; Subjects with at least 1 PCS abnormal test, % [3]: (22.6) %; ALT, Mean Change From Baseline to End of Treatment (1 mg TID, Safety Population): 0.8 IU/L; AST, Mean Change From Baseline to End of Treatment (1 mg TID, Safety Population): −0.5 IU/L; Albumin, Mean Change From Baseline to End of Treatment (1 mg TID, Safety Population): 0.0 g/dL; Alkaline phosphatase, Mean Change From Baseline to End of Treatment (1 mg TID, Safety Population): 2.5 IU/L; BUN, Mean Change From Baseline to End of Treatment (1 mg TID, Safety Population): 0.3 mg/dL; Basophils, Mean Change From Baseline to End of Treatment (1 mg TID, Safety Population): −0.1%; Calcium, Mean Change From Baseline to End of Treatment (1 mg TID, Safety Population): 0.0 mg/dL; Chloride, Mean Change From Baseline to End of Treatment (1 mg TID, Safety Population): -0.3 mmol/L; Creatinine, Mean Change From Baseline to End of Treatment (1 mg TID, Safety Population): 0.0 mg/dL; Eosinophils, Mean Change From Baseline to End of Treatment (1 mg TID, Safety Population): −0.1%; Glucose (random), Mean Change From Baseline to End of Treatment (1 mg TID, Safety Population): 2.2 mg/dL; Hematocrit, Mean Change From Baseline to End of Treatment (1 mg TID, Safety Population): 0.5%; Hemoglobin, Mean Change From Baseline to End of Treatment (1 mg TID, Safety Population): 0.1 g/dL; Lymphocytes, Mean Change From Baseline to End of Treatment (1 mg TID, Safety Population): 0.3%; Monocytes, Mean Change From Baseline to End of Treatment (1 mg TID, Safety Population): −0.1%; Neutrophils, Mean Change From Baseline to End of Treatment (1 mg TID, Safety Population): −0.2%; Platelet count, Mean Change From Baseline to End of Treatment (1 mg TID, Safety Population): −2 K/μL; Potassium, Mean Change From Baseline to End of Treatment (1 mg TID, Safety Population): -0.1 mmol/L; Sodium, Mean Change From Baseline to End of Treatment (1 mg TID, Safety Population): 0.2 mmol/L; Total bilirubin, Mean Change From Baseline to End of Treatment (1 mg TID, Safety Population): -0.0 mg/dL; White blood cells, Mean Change From Baseline to End of Treatment (1 mg TID, Safety Population): −0.2 K/μL; ALT, Mean Value [4]: 21.9 IU/L; AST, Mean Value [4]: 20.9 IU/L; Albumin, Mean Value [4]: 4.2 g/dL
